# Test results as given in doi:10.1101/2024.12.05.627101v1 (biorxiv, 2024).
# By UniProt entry, the sequences of proteins in these tests, tags left out. Residues count along the entry.
# UniProt P41594, 21-1180 isoform P41594-2: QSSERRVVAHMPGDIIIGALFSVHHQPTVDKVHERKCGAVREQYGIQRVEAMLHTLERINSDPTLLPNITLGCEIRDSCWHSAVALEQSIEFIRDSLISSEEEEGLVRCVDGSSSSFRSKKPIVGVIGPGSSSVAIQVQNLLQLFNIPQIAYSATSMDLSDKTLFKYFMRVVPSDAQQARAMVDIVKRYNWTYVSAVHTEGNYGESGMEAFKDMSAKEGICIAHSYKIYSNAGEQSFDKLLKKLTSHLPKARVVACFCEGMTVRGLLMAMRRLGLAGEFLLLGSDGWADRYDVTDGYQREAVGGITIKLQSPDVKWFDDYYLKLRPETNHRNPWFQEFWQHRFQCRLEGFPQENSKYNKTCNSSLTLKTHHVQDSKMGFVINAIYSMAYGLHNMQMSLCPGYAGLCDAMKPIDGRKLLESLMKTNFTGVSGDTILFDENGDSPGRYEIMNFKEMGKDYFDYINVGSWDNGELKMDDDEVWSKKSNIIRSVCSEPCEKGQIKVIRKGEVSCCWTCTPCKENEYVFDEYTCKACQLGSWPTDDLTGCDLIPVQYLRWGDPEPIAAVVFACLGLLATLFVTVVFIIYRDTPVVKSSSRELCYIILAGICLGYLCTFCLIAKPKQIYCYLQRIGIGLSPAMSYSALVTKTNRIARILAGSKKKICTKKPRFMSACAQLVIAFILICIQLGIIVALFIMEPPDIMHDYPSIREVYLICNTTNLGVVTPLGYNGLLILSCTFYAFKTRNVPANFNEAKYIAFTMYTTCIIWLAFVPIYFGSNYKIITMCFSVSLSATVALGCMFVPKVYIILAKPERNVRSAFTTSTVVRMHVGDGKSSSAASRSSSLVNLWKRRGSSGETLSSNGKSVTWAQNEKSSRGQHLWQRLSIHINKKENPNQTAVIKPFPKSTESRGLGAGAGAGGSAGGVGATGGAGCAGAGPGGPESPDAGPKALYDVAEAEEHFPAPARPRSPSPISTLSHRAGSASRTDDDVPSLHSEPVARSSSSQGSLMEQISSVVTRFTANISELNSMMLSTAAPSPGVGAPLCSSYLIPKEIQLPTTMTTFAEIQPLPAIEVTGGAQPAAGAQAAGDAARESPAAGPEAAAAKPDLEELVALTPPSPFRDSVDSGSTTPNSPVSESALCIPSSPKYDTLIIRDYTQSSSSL
# Where two headings read alike, the source gives them in different places.
# Experiments:
# human mGlu5 (hmGlu5) [1] = target: T1, human mGlu5 (hmGlu5) (Homo sapiens, UniProt P41594); test: whole-cell [3H]methoxy-PEPy inhibition binding; type: cell-based
# human mGlu5 (hmGlu5) [2] = target: T1, human mGlu5 (hmGlu5); test: IP1 accumulation; type: cell-based
# human mGlu5 (hmGlu5) [3] = target: T1, human mGlu5 (hmGlu5); test: cell-based; design: species or system HEK293A
# human mGlu5 (hmGlu5) [4] = target: T1, human mGlu5 (hmGlu5); test: cell-based; design: species or system HEK293A; remark: listed apart in the source
# human mGlu5 (hmGlu5) [5] = target: T1, human mGlu5 (hmGlu5); test: cell-based; design: species or system HEK293A; remark: listed apart in the source
# human mGlu5 (hmGlu5) [6] = target: T1, human mGlu5 (hmGlu5); test: whole-cell [3H]methoxy-PEPy inhibition binding; type: cell-based; remark: listed apart in the source
# human mGlu5 (hmGlu5) [7] = target: T1, human mGlu5 (hmGlu5); test: IP1 accumulation; type: cell-based; remark: listed apart in the source
# human mGlu5 (hmGlu5) [8] = target: T1, human mGlu5 (hmGlu5); test: cell-based; design: species or system HEK293A; remark: listed apart in the source
Ki (human mGlu5 (hmGlu5) [1]) [nM],IC50 (human mGlu5 (hmGlu5) [2]) [nM],Ki (human mGlu5 (hmGlu5) [3]) [nM],Kb (human mGlu5 (hmGlu5) [4]) [nM],Kb (human mGlu5 (hmGlu5) [5]) [nM],Kd (human mGlu5 (hmGlu5) [6]) [nM],EC50 (human mGlu5 (hmGlu5) [7]) [nM],Kb (human mGlu5 (hmGlu5) [8]) [nM],Structure (SMILES)
3.72,8.91,331,0.692,2.69,–,–,–,"Cc1cccc(C#Cc2ccccc2)n1 [MPEP, 2-methyl-6-(phenylethynyl)pyridine]"
–,–,–,407,115,245,214,550,"N#Cc1cccc(C(=O)Nc2cc(-c3ccccc3)nn2-c2ccccc2)c1 [CDPPB, 3-cyano-N-(1,3-diphenyl-1H-pyrazol-5-yl) benzamide]"
